Measured values as given in patent US5464861A, “2-thioindoles (selenoindoles) and related disulfides (selenides) which inhibit protein tyrosine kinases and which have antitumor properties” (Warner-Lambert, priority 1993, dated 1995).

Biological target: T1, epidermal growth factor receptor tyrosine kinase (Homo sapiens, UniProt P00533)
T1 construct: A native 170,000 epidermal growth factor receptor-kinase complex from shed plasma membrane vesicles; endogenous in cells
Assay: EGF receptor tyrosine kinase assay (P^32 incorporation in GAT)
Type: biochemical
Conditions: read-out: % Inhibition at 100 μM (EGFR TK)
Procedure: At the time of assay, membranes were solubilized in 4% Triton X-100 and glycerol. The reaction is carried out in wells of a 96-well microtiter plate in a total volume of […]. Buffer containing 20 mMHepes (pH 7.4), 15 mMMgCl2, mM MnCl2, and 0.02% BSA followed by […] of membrane protein and 150 ng of epidermal growth factor. The plates are incubated for 10 minutes at room temperature to activate the receptor kinase. […] ATP plus or minus compound are added and incubated 10 minutes at room temperature.

SMILES	inhibition at 100 µM
CN1C(=S)C(C(=O)c2ccccc2)c2ccccc21 (centres unmarked) [Compound 24, 3-benzoyl-1-methyl-2-indolinethione]	19%
COC(=O)c1ccc(C(=O)C2C(=S)N(C)c3ccccc32)cc1 (centres unmarked) [Compound 26, 3-(4'-carbomethoxybenzoyl) -1-methyl-2-indolinethione]	23%
